Consider 110 molecules from PubChem BioAssay AID1920062 (Sanford-Burnham Center for Chemical Genomics, 2024).

Chains of the proteins cited; added tags and fusions are not shown.
UniProt P20594, whole entry: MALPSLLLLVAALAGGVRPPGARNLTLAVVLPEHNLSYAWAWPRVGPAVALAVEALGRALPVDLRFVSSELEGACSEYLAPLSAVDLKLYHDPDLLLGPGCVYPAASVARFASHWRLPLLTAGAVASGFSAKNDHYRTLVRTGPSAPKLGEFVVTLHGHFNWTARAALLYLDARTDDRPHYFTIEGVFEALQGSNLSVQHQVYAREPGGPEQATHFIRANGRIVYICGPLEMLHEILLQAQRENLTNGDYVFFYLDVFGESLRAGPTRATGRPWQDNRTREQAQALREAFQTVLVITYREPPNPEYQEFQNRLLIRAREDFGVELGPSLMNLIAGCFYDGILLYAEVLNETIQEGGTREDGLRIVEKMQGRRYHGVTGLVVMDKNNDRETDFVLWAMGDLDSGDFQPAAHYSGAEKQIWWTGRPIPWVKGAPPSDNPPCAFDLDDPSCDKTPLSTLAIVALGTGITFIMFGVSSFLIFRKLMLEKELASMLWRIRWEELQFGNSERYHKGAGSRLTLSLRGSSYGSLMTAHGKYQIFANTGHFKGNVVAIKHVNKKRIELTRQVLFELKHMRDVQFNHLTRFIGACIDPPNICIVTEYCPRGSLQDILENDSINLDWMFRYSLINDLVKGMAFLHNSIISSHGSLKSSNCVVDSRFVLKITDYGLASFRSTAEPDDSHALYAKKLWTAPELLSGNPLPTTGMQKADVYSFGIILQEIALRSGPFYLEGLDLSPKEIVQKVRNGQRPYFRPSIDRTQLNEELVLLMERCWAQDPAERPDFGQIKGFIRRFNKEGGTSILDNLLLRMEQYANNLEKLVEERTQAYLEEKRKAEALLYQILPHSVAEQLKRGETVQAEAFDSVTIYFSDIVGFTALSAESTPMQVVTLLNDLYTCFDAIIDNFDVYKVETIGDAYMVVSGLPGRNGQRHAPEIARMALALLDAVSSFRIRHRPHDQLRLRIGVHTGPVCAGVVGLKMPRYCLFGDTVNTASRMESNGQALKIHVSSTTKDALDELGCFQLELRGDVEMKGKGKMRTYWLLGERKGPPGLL

Molecules are shown by their SMILES. Only a part is listed here, and it is no random draw. Calls of active or inactive are those of the source.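 Rule for the calls: active = activation at 10 µM reaching about 35% in either raw or pattern-adjusted values (limit read from the data); inactive = the rest.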

The target of the experiment is Atrial natriuretic peptide receptor 2 (Homo sapiens) (UniProt P20594). Description: human GC-B receptor activators, primary screen, HEK293 GC-B cells, cGMP TR-FRET, EC30 CNP (AID 1920062). The settings on record: at 10 µM, active compounds read high, 0% at EC30 CNP, 100% saturating CNP.
For `Cc1cccc(NC2(C#N)CCN(Cc3ccccc3)CC2)c1`, the activation is inactive: 0.95%. As for `CSc1ccccc1C(=O)NCC1(N2CCCCC2)CCCCC1`, the figure is inactive: 3.94%. As for `CCCCn1nnnc1C(c1cccs1)N1CCC(n2c(=O)[nH]c3ccccc32)CC1` (stereo not given), the figure is inactive: 2.75%; as for `CCCCn1nnnc1C(CC)N1CCC(n2c(=O)[nH]c3ccccc32)CC1` (stereo not given), inactive: 4.01%; as for `O=C(NCC1(N2CCCCC2)CCCCC1)c1cccs1`, inactive: 0.61%. The same measure for `O=C(NCC1(N2CCCCC2)CCCCC1)c1ccc(=O)[nH]c1`: inactive: 5.8%; for `CCC(c1nnnn1C1CCCC1)N1CCC(n2c(=O)[nH]c3ccccc32)CC1` (stereo not given): inactive: -8.72%; for `COc1ccc(C(=O)NCC2(N3CCCCC3)CCCCC2)c(OC)c1OC`: inactive: 3.18%. With `CC(C)(C)OC(=O)N1CCC(N(C(=O)c2ccccc2)c2ccc(F)cc2)CC1`, the activation was inactive: 0.65%. The same measure for `COc1ccc(C(=O)NCC2(N3CCCCC3)CCCCC2)cc1`: inactive: 4.08%; for `CCCCn1nnnc1C(c1ccc(OC)cc1)N1CCC(n2c(=O)[nH]c3ccccc32)CC1` (stereo not given): inactive: -11.9%. With `CCOC(=O)N1CCC(Nc2ccc(OC)cc2)CC1`, the activation is inactive: -0.98%. As to `COc1ccc(Cl)cc1C(=O)NCC1(N2CCOCC2)CCCCC1`, the activation is inactive: 3.48%. The same measure for `O=C(OC1CN2CCC1CC2)C1c2ccccc2Oc2ccccc21` (stereo not given): inactive: -10.7%. The same measure for `O=c1[nH]c2ccccc2n1C1CCN(C(c2cc3ccccc3o2)c2nnnn2C2CCCCC2)CC1` (stereo not given): inactive: 4.45%.

For the molecule `O=C(NCC1(N2CCCCC2)CCCCC1)c1ccc(Cl)s1`, the activation was inactive: 2.98%. As for `N#CC1(Nc2ccccc2)CCN(Cc2ccccc2)CC1`, the figure is inactive: 4.86%; as for `O=C(NCC1(N2CCOCC2)CCCCC1)c1cc2ccccc2o1`, inactive: -1.41%; as for `Cc1cc(C)cc(N(C(=O)c2ccccc2)C2CCN(C(=O)OC(C)(C)C)CC2)c1`, inactive: 1.76%. As for `O=c1[nH]c2ccccc2n1C1CCN(C(c2ccccc2OC(F)(F)F)c2nnnn2C2CCCCC2)CC1` (stereo not given), the figure is inactive: 2.67%; as for `O=C(NCC1(N2CCCCC2)CCCCC1)c1ccc(Cl)nc1`, inactive: 9.66%. The same measure for `COc1ccc(NC2CCN(CCc3ccccc3)CC2)c(OC)c1`: inactive: -1.19%. As to `CCOC(=O)N1CCC(Nc2ccc(F)cc2)CC1`, the activation is inactive: -1.97%. The same measure for `O=C(NCC1(N2CCCCC2)CCCCC1)c1ccc(F)cc1`: inactive: -2.45%; for `CCCCn1nnnc1C(c1cc2ccccc2o1)N1CCC(n2c(=O)[nH]c3ccccc32)CC1` (stereo not given): inactive: 4.42%.

For the molecule `O=P1(N(CCCl)CCCl)SCCCS1`, the activation is inactive: 2.73%. The same measure for `CCCCOc1ccc(C(=O)NCC2(N3CCOCC3)CCCCC2)cc1`: inactive: -5.82%; for `CCOc1ccc(C)cc1CN(CCCl)CCCl`: inactive: -1.72%. `O=C1CCN(Cc2ccccc2)CC1`: the activation was inactive: 4.8%.

For the molecule `CC(C)(C)n1nnnc1C(c1ccccc1)N1CCC(n2c(=O)[nH]c3ccccc32)CC1` (stereo not given), the activation was inactive: -0.37%.

As for `O=c1[nH]c2ccccc2n1C1CCN(C(c2cccc3ccccc23)c2nnnn2C2CCCC2)CC1` (stereo not given), the activation is inactive: -2.8%.

For the molecule `COc1cc(C(=O)NCC2(N(C)C)CCCCC2)ccc1OC(F)F`, the activation was inactive: 2.71%. As for `CCOC(=O)N1CCC(Nc2cccc(C)c2)CC1`, the figure is inactive: -1.18%; as for `O=c1[nH]c2ccccc2n1C1CCN(C(c2ccccc2)c2nnnn2C2CCCCC2)CC1` (stereo not given), inactive: 0.83%. The same measure for `O=C(NCC1(N2CCCCC2)CCCCC1)c1cccc([N+](=O)[O-])c1`: inactive: -3.25%; for `CSc1ccc(C(=O)NCC2(N3CCOCC3)CCCCC2)cc1`: inactive: 2.44%.

As for `N#CC1(Nc2ccccc2)CCN(CCc2ccccc2)CC1`, the activation was inactive: 2.4%. In the case of `O=c1[nH]c2ccccc2n1C1CCN(C(c2ccccc2OC(F)(F)F)c2nnnn2C2CCCC2)CC1` (stereo not given), the activation was inactive: -1.13%. The same measure for `CCN1CCC(Nc2ccc(Cl)cc2)CC1`: inactive: -5.76%; for `O=C(NCC1(N2CCCCC2)CCCCC1)c1ccc(OC(F)F)cc1`: inactive: 4.47%. With `CC(C)(C)n1nnnc1C(c1ccccc1OC(F)(F)F)N1CCC(n2c(=O)[nH]c3ccccc32)CC1` (stereo not given), the activation is inactive: 2.61%. The same measure for `CCCCn1nnnc1C(c1cccc2ccccc12)N1CCC(n2c(=O)[nH]c3ccccc32)CC1` (stereo not given): inactive: -10.8%.

In the case of `CN1CCN(CCOC(=O)C(O)(c2ccccc2)c2ccccc2)CC1`, the activation is inactive: 2.22%. As for `COc1ccc(NC2CCN(C(=O)OC(C)(C)C)CC2)cc1`, the figure is inactive: -7.56%; as for `CC(C)c1ccc(C(=O)NCC2(N3CCOCC3)CCCCC2)cc1`, inactive: 6.96%. As for `COc1cc(C(=O)NCC2(N3CCCCC3)CCCCC2)ccc1OC(F)F`, the figure is inactive: 2.42%; as for `O=C(NCC1(N2CCOCC2)CCCCC1)c1cc(=O)[nH]c2ccccc12`, inactive: -0.58%; as for `O=C(NCC1(N2CCCCC2)CCCCC1)c1cccc(C(F)(F)F)c1`, inactive: 3.01%. The same measure for `CCCCn1nnnc1C(c1ccnc2ccccc12)N1CCC(n2c(=O)[nH]c3ccccc32)CC1` (stereo not given): inactive: 0.25%.

For `CCC(c1nnnn1C(C)(C)C)N1CCC(n2c(=O)[nH]c3ccccc32)CC1` (stereo not given), the activation was inactive: -3.09%. Regarding `O=C(NCC1(N2CCOCC2)CCCCC1)c1cc(F)c(F)cc1Cl`, the activation was inactive: -8.94%. The same measure for `COc1cc(OC)c(C(=O)NCC2(N(C)C)CCCCC2)cc1OC`: inactive: 9.36%; for `CN(C)c1cccc(C(=O)NCC2(N3CCCCC3)CCCCC2)c1`: inactive: 2.65%; for `COC(=O)C1(Nc2ccccc2)CCN(Cc2ccccc2)CC1`: inactive: -4.64%. Turning to `COc1ccc(CN(CCCl)CCCl)cc1Cl`, the activation is inactive: 2.78%.

Consider `CC(C)c1ccc(NC2CCN(C(=O)OC(C)(C)C)CC2)cc1`, for which the activation was inactive: 3.22%. Turning to `CCCOc1ccc(C(=O)NCC2(N(C)C)CCCCC2)cc1OC`, the activation was inactive: -0.28%.

For the molecule `Cc1ccc(C(=O)NCC2(N(C)C)CCCCC2)o1`, the activation is inactive: -1.54%. The same measure for `COc1ccc(C(c2nnnn2C2CCCC2)N2CCC(n3c(=O)[nH]c4ccccc43)CC2)cc1` (stereo not given): inactive: -6.9%; for `O=C(NCC1(N2CCCCC2)CCCCC1)c1cncc(Br)c1`: inactive: 1.22%. As for `CN1CCC(Nc2cccc(F)c2)CC1`, the figure is inactive: 3.88%; as for `O=c1[nH]c2ccccc2n1C1CCN(C(c2ccnc3ccccc23)c2nnnn2C2CCCC2)CC1` (stereo not given), inactive: -4.86%.

Regarding `COc1ccc(C(=O)NCC2(N3CCOCC3)CCCCC2)cc1OC`, the activation is inactive: 4.92%.

For `NC(=O)C1(Nc2ccccc2)CCN(Cc2ccccc2)CC1`, the activation is inactive: -4.39%.

Regarding `O=c1[nH]c2ccccc2n1C1CCN(C(c2cccs2)c2nnnn2C2CCCCC2)CC1` (stereo not given), the activation was inactive: 9.72%. With `O=C(NCC1(N2CCOCC2)CCCCC1)c1cc(Br)ccc1Cl`, the activation is inactive: -2.94%. As for `COc1cc(C(=O)NCC2(N3CCOCC3)CCCCC2)cc(OC)c1C`, the activation was inactive: -2.82%. The same measure for `CCCCn1nnnc1C(c1ccccc1)N1CCC(n2c(=O)[nH]c3ccccc32)CC1` (stereo not given): inactive: 0.55%. With `CCCCn1nnnc1C(c1cccc(OC)c1OC)N1CCC(n2c(=O)[nH]c3ccccc32)CC1` (stereo not given), the activation was inactive: -0.04%. With `O=c1[nH]c2ccccc2n1C1CCN(C(c2cccs2)c2nnnn2C2CCCC2)CC1` (stereo not given), the activation was inactive: 4.55%.

Take `O=C(OC1CN2CCC1CC2)C1c2ccccc2C=Cc2ccccc21` (stereo not given): the activation is inactive: -23.1%.

Regarding `N/C(=N\O)c1c(N)no[n+]1[O-]`, the activation is inactive: 1.84%. The same measure for `COc1cccc(C(c2nnnn2C(C)(C)C)N2CCC(n3c(=O)[nH]c4ccccc43)CC2)c1OC` (stereo not given): inactive: 1.68%. Consider `CCOC(=O)N1CCC(Nc2ccc(C)cc2)CC1`, for which the activation was inactive: 1.42%. As for `CC(C)(C)OC(=O)N1CCC(N(C(=O)c2ccccc2)c2ccc(Cl)cc2)CC1`, the figure is inactive: 2.21%; as for `N#Cc1ccc(C(=O)NCC2(N3CCCCC3)CCCCC2)cc1`, inactive: 5.43%. The same measure for `CC(C)(C)n1nnnc1C(c1cccc2ccccc12)N1CCC(n2c(=O)[nH]c3ccccc32)CC1` (stereo not given): inactive: -3.82%; for `O=c1[nH]c2ccccc2n1C1CCN(C(c2ccccc2)c2nnnn2C2CCCC2)CC1` (stereo not given): inactive: 1.2%; for `CCCN1CCC(Nc2cc(OC)cc(OC)c2)CC1`: inactive: 4.54%.

As to `Cc1cc(N(CCCl)CCCl)ccc1C=O`, the activation is inactive: 2.6%.

With `c1ccc(CN2CCC(Nc3ccccc3)CC2)cc1`, the activation is inactive: 0.41%. The same measure for `C/C(N)=N\P(=O)(Oc1ccccc1)Oc1ccccc1`: inactive: -3.83%.

With `CN(C)C1(CNC(=O)c2cccc(C#N)c2)CCCCC1`, the activation is inactive: 2.7%. As for `Cc1ccc(NC2(C#N)CCN(Cc3ccccc3)CC2)cc1`, the figure is inactive: 1.43%; as for `Fc1ccccc1NC1CCN(Cc2ccccc2)CC1`, inactive: 3.62%. The same measure for `Cc1ccc(C(=O)NCC2(N3CCCCC3)CCCCC2)o1`: inactive: -4.92%; for `O=c1[nH]c2ccccc2n1C1CCN(C(c2ccnc3ccccc23)c2nnnn2C2CCCCC2)CC1` (stereo not given): inactive: -2.42%; for `COc1cc(OC)cc(C(=O)NCC2(N3CCCCC3)CCCCC2)c1`: inactive: -6.17%. The same measure for `CCC(c1nnnn1C1CCCCC1)N1CCC(n2c(=O)[nH]c3ccccc32)CC1` (stereo not given): inactive: -9.93%. Take `CC(=O)N(c1ccccc1)C1CCNCC1`: the activation is inactive: 2.48%.

As for `COc1cccc(C(c2nnnn2C2CCCCC2)N2CCC(n3c(=O)[nH]c4ccccc43)CC2)c1OC` (stereo not given), the activation is inactive: -5.34%. The same measure for `Cn1c(=O)[nH]cc(N(CCCl)CCCl)c1=O`: inactive: -3.77%; for `CN(C)c1ccc(C(=O)NCC2(N3CCCCC3)CCCCC2)cc1`: inactive: 2.02%; for `O=C(NCC1(N2CCCCC2)CCCCC1)c1ccco1`: inactive: 3.74%. The same measure for `CC(C)(C)n1nnnc1C(c1ccnc2ccccc12)N1CCC(n2c(=O)[nH]c3ccccc32)CC1` (stereo not given): inactive: -4.07%; for `COc1ccc(C(c2nnnn2C2CCCCC2)N2CCC(n3c(=O)[nH]c4ccccc43)CC2)cc1` (stereo not given): inactive: -0.74%; for `CCN1CCC(Nc2cccc(F)c2)CC1`: inactive: 2.01%. As for `Cc1ccccc1NC1(C#N)CCN(Cc2ccccc2)CC1`, the figure is inactive: -2.4%; as for `CCCOc1ccc(C(=O)NCC2(N(C)C)CCCCC2)cc1`, inactive: 5.59%. Take `O=c1[nH]c2ccccc2n1C1CCN(C(c2cc3ccccc3o2)c2nnnn2C2CCCC2)CC1` (stereo not given): the activation is inactive: 10.7%. As for `O=C(O)C1(Nc2ccccc2)CCN(Cc2ccccc2)CC1`, the figure is inactive: 2.38%. Consider `NN(c1ccccc1)C1CCN(CCc2ccccc2)CC1`, for which the activation was inactive: -1.47%. As for `CC(C)(C)OC(=O)N1CCC(Nc2ccccc2)CC1`, the figure is inactive: -0.64%. As for `CN1CCC(Nc2ccc(F)c(Cl)c2)CC1`, the activation is inactive: -6.41%. Regarding `CCOc1ncccc1C(=O)NCC1(N2CCOCC2)CCCCC1`, the activation was inactive: -8.18%.

For `CN1CCC(Nc2ccc(Cl)cc2)CC1`, the activation was inactive: 0.88%. As for `CCC(CO)(C(=O)OC1CN2CCC1CC2)c1ccccc1` (stereo not given), the figure is inactive: -5.11%.

Regarding `COc1cc(OC)cc(C(=O)NCC2(N3CCOCC3)CCCCC2)c1`, the activation is inactive: 3.44%. Consider `COc1cccc(C(c2nnnn2C2CCCC2)N2CCC(n3c(=O)[nH]c4ccccc43)CC2)c1OC` (stereo not given), for which the activation was inactive: 1.97%.

As for `COc1cccc(C(=O)N(c2cc(C)cc(C)c2)C2CCN(C(=O)OC(C)(C)C)CC2)c1`, the activation is inactive: 2.23%.
